Reference: US20170157260A1, “Glycosylated Polypeptide and Drug Composition Containing said Polypeptide” (Glytech, Inc., priority 2011, published 2017)

By UniProt entry, the sequences of proteins in these tests, tags left out. Where a name states a change or a piece, a line headed by the entry shows the natural chain unless it says otherwise.
UniProt P30872: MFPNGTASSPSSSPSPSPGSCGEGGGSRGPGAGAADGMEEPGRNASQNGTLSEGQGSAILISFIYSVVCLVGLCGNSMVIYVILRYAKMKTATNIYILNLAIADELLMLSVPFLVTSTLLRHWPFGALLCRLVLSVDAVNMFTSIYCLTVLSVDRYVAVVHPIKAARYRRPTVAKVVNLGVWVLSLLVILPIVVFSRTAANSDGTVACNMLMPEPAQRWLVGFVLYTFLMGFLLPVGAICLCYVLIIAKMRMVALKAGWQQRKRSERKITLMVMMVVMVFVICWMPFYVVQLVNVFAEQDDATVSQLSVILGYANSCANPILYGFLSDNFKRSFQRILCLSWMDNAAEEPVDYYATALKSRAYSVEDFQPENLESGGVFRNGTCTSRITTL
UniProt P32745: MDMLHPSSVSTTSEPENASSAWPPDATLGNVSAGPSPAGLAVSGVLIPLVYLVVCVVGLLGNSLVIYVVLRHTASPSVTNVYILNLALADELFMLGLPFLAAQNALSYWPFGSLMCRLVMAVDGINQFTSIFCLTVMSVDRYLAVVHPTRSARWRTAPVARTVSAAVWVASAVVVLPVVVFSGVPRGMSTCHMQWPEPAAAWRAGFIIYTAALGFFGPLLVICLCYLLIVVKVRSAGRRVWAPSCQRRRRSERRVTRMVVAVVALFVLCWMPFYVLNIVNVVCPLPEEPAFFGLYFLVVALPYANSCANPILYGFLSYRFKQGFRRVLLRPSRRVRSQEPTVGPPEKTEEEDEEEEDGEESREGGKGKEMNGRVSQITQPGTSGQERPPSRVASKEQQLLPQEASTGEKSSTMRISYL
UniProt P30874: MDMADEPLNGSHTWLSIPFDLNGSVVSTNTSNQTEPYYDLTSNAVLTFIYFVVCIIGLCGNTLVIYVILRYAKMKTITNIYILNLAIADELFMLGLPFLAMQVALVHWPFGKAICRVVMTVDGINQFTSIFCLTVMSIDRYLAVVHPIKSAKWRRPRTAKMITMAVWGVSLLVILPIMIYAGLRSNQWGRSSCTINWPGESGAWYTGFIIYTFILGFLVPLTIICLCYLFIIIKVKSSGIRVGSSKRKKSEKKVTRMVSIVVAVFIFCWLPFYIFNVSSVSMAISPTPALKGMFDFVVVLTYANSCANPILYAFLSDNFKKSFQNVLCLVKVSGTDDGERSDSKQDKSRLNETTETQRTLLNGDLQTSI
UniProt P35346: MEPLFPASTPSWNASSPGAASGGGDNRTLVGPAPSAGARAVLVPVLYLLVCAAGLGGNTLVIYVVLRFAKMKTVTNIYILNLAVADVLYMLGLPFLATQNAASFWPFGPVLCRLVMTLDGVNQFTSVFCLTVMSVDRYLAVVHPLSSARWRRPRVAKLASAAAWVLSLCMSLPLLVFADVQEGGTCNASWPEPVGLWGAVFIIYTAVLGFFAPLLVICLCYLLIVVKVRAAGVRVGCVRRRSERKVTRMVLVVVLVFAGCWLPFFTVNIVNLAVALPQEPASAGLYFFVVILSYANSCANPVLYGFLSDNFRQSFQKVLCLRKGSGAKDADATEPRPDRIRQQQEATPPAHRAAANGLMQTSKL
UniProt P31391: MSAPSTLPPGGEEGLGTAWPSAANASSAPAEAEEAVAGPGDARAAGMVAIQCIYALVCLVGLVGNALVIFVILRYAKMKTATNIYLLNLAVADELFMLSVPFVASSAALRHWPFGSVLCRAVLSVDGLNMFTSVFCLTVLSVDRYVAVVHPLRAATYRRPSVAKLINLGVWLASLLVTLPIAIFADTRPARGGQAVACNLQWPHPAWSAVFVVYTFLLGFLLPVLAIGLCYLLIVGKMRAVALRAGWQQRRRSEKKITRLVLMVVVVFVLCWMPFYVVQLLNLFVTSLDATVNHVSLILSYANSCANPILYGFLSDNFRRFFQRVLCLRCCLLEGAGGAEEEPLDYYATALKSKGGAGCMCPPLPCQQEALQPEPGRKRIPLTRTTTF

Tests used:
SSTR1 [1] = molecular target: T1, SSTR1 (Homo sapiens, UniProt P30872); assay: Agonist activity evaluation (cAMP production suppression), SSTR1 receptor expression cells; format: cell-based; conditions: Table 3E, Example 67-4; read-out: IC50 of the agonist activity, SSTR1
SSTR3 [2] = molecular target: T2, SSTR3 (Homo sapiens, UniProt P32745)
SSTR1 [3] = molecular target: T1, SSTR1
SSTR2 [4] = molecular target: T3, SSTR2 (Homo sapiens, UniProt P30874)
[5] = test system: growth hormone (GH) production; assay: GH production suppression test with rats; format: in vivo
SSTR5 [6] = molecular target: T4, SSTR5 (Homo sapiens, UniProt P35346)
[7] = Pharmacokinetics test with rats (intravenous and subcutaneous administration); conditions: rats; for BA: subcutaneous vs intravenous
SSTR3 [8] = molecular target: T2, SSTR3; assay: Competitive binding assay, SSTR3; conditions: Table 3B, Example 67-2, competitive binding assay; for IC50: read-out: SSTR3 IC50; for Ki: read-out: SSTR3 Ki
SSTR5 [9] = molecular target: T4, SSTR5; assay: Competitive binding assay, SSTR5; conditions: Table 3B, Example 67-2, competitive binding assay; for IC50: read-out: SSTR5 IC50
SSTR1 [10] = molecular target: T1, SSTR1; assay: Competitive binding assay, SSTR1; conditions: Table 3B, Example 67-2, competitive binding assay
SSTR2 [11] = molecular target: T3, SSTR2; assay: Competitive binding assay, SSTR2; conditions: Table 3B, Example 67-2, competitive binding assay; for Ki: read-out: SSTR2 Ki
SSTR2 [12] = molecular target: T3, SSTR2; assay: Agonist activity evaluation (cAMP production suppression), SSTR2 receptor expression cells; format: cell-based; parameters: host or cells: CHO-K1 cells; conditions: Table 3E, Example 67-4; read-out: IC50 of the agonist activity, SSTR2
SSTR3 [13] = molecular target: T2, SSTR3; assay: Agonist activity evaluation (cAMP production suppression), SSTR3 receptor expression cells; format: cell-based; parameters: host or cells: CHO-K1 cells; conditions: Table 3E, Example 67-4; read-out: IC50 of the agonist activity, SSTR3
SSTR4 = SSTR4 (Homo sapiens, UniProt P31391); assay: Agonist activity evaluation (cAMP production suppression), SSTR4 receptor expression cells; format: cell-based; conditions: Table 3E, Example 67-4; read-out: IC50 of the agonist activity, SSTR4
SSTR5 [14] = molecular target: T4, SSTR5; assay: Agonist activity evaluation (cAMP production suppression), SSTR5 receptor expression cells; format: cell-based; parameters: host or cells: CHO-K1 cells; conditions: Table 3E, Example 67-4; read-out: IC50 of the agonist activity, SSTR5
[15] = Table 8 (Example 87), dose 1 nmol/kg, vehicle 1012
[16] = Table 8 (Example 87), dose 10 nmol/kg, vehicle 1012
[17] = intravenous administration, Tables 5B-5F (Examples 73-84)
[18] = subcutaneous administration, Tables 5B-5F (Examples 73-84)
[19] = Table 7 (Example 86), subcutaneous, dose 10 nmol/kg, 1 hour before GRF, plasma GH 5 minutes after GRF, vehicle 861
[20] = intravenous administration, Table 5A (Examples 69-72), spread in the line below
[21] = subcutaneous administration, Table 5A (Examples 69-72), spread in the line below
[22] = BA=(AUC(sc)/Dose(sc))/(AUC(iv)/Dose(iv)), Table 5A
[23] = Examples 69-72 (text on Table 5A)

Substance	IC50 (SSTR1 [1])	IC50 (SSTR3 [2])	Ki (SSTR3 [2])	IC50 (SSTR1 [3])	Ki (SSTR1 [3])	IC50 (SSTR2 [4])	Ki (SSTR2 [4])	GH [5, 15]	GH [5, 16]	IC50 (SSTR5 [6])	Ki (SSTR5 [6])	IC50 (SSTR3 [8])	Ki (SSTR3 [8])	IC50 (SSTR5 [9])	Ki (SSTR2 [11])	IC50 (SSTR2 [12])	IC50 (SSTR3 [13])	IC50 (SSTR4)	IC50 (SSTR5 [14])	GH [5, 19]	other results
S1C(disialo)-D-Trp22-SRIF28 [Example 15]	3.5 nM	0.834 nM	0.285 nM	2.23 nM	1.85 nM	0.0324 nM	0.0172 nM	335 ng/mL	6 ng/mL	0.565 nM	0.319 nM										GH ([5]; Table 8 (Example 87), dose 0.3 nmol/kg, vehicle 1012): 986 ng/mL; GH ([5]; Table 8 (Example 87), dose 3 nmol/kg, vehicle 1012): 50 ng/mL; GH ([5]; Table 8 (Example 87), dose 30 nmol/kg, vehicle 1012): 2 ng/mL; Intravenous administration AUC [7, 17]: 4924 nM·min; Intravenous administration C0 [7, 17]: 588 nM; Intravenous administration MRT [7, 17]: 20.6 min; Intravenous administration T1/2 [7, 17]: 18.3 min; Subcutaneous administration AUC [7, 18]: 2220 nM·min; Subcutaneous administration Cmax [7, 18]: 34.0 nM; Subcutaneous administration MRT [7, 18]: 51.9 min; Subcutaneous administration T1/2 [7, 18]: 31.0 min; BA ([7]; Tables 5B-5F (Examples 73-84)): 45%
S1C(disialo)-SRIF28-amido [Example 42]	1.7 nM											5.91 nM	2.02 nM	3.75 nM	0.7 nM						Ki (SSTR1 [10]; read-out: SSTR1 Ki): 4.03 nM; IC50 (SSTR2 [11]; read-out: SSTR2 IC50): 1.32 nM
S1C(disialo).N5C(disialo)-SRIF28 [Example 21]		1.58 nM	0.539 nM	6.89 nM	5.7 nM	0.224 nM	0.119 nM	776 ng/mL	181 ng/mL	0.728 nM	0.411 nM					0.072 nM	0.37 nM	0.041 nM	0.09 nM	181 ng/mL	GH ([5]; Table 7 (Example 86), subcutaneous, dose 1 nmol/kg, 1 hour before GRF, plasma GH 5 minutes after GRF, vehicle 861): 776 ng/mL; Intravenous administration AUC [7, 20]: 4099 nM·min; Intravenous administration C0 [7, 20]: 558 nM; Intravenous administration MRT [7, 20]: 24.6 min; Intravenous administration t1/2 [7, 20]: 25.8 min; Subcutaneous administration AUC [7, 21]: 3344 nM·min; Subcutaneous administration Cmax [7, 21]: 35.5 nM; Subcutaneous administration MRT [7, 21]: 67.9 min; Subcutaneous administration t1/2 [7, 21]: 38.4 min; BA [7, 22]: 82%
S1C(disialo).N5C(disialo).A9C(disialo)-SRIF28 [Example 25]		7.93 nM	2.71 nM	69.2 nM	57.3 nM	0.985 nM	0.523 nM			4.14 nM	2.34 nM					1.4 nM	2.4 nM	0.16 nM	1.1 nM	833 ng/mL	GH ([5]; Table 7 (Example 86), subcutaneous, dose 100 nmol/kg, 1 hour before GRF, plasma GH 5 minutes after GRF, vehicle 861): 151 ng/mL; GH ([5]; Table 8 (Example 87), dose 100 nmol/kg, vehicle 1012): 151 ng/mL; Intravenous administration AUC [7, 20]: 4402 nM·min; Intravenous administration C0 [7, 20]: 938 nM; Intravenous administration MRT [7, 20]: 25.8 min; Intravenous administration t1/2 [7, 20]: 39.8 min; Subcutaneous administration AUC [7, 21]: 4015 nM·min; Subcutaneous administration Cmax [7, 21]: 24.8 nM; Subcutaneous administration MRT [7, 21]: 132 min; Subcutaneous administration t1/2 [7, 21]: 87.4 min; BA [7, 22]: 91%; AUC for intravenous administration [7, 23]: 4402 nM·min; bioavailability (BA), subcutaneous administration [7, 23]: 91%
S1C(trisialo)-SRIF28 [Example 55]	4.9 nM											5.59 nM	1.91 nM	1.95 nM	0.41 nM	0.11 nM	0.38 nM		0.09 nM		Ki (SSTR5 [9]; read-out: SSTR5 Ki): 1.1 nM; IC50 (SSTR1 [10]; read-out: SSTR1 IC50): 17 nM

Like-named read-outs stand apart in the source and are kept apart here.
